Consider 1 compound from patent EP0000322A1, “Compounds having an anti-depressive or tranquilizing activity, pharmaceutical compositions containing them, and processes and intermediates for their preparation” (priority 1977, dated 1979).

This test relates to neuronal uptake of 5-hydroxytryptamine. Kind of test: Inhibition of the uptake of 14C-5-HT in brain slices after in vivo (i.p.) administration. The arrangement: species or system mice. Conditions: Mus musculus, ip, 0.5 h, read-out: Inhibition of the uptake in vivo i.p. ED50 5-HT, i.p. half an hour before the animals were killed, midbrain slices. How it is done: The test method described in Europ. J. Pharmacol. 17, 107, 1972. This method involves the measurement of the decrease in the uptake of ^14C-5-hydroxytryptamine (^14C-5-HT) and ^3H- -noradrenaline (^3H-NA) in brain slices from mice after in vivo and in vitro administration of the test substance.
The test substances were administered intraperitoneally half an hour before the animals were killed. The midbrain was taken out, sliced and incubated in a mixture consisting of 0.2 nmole of ^14C-5-HT, 0.2 nmole of ^3H-NA and 11 µmole of glucose in 2 ml of Krebs Henseleit-buffer, pH 7.4 per 100 mg of brain slices. The incubation time was 5 minutes with 5 minutes of preincubation before the labelled amines were added. The slices were dissolved in Soluene and the amounts of radioactive amines taken u^p were determined by liquid scintillation. The doses producing 50 per cent decrease of the active uptake (ED50) of ^14C-5-HT and ^3H-NA were determined graphically from dose response curves. Active uptake is defined as that part of the radioactive uptake which is inhibited by a high concentration of cocaine.

For `CN(C)CCCN1c2ccccc2CCc2ccc(Cl)cc21` [Chloroimipramine, reference compound], the ED50 worked out at 20 µmol/kg.
